Article PMC4858680, “A platinum-based hybrid drug design approach to circumvent acquired resistance to molecular targeted tyrosine kinase inhibitors” (Scientific Reports, 2016)

By UniProt entry, the sequences of proteins in these tests, tags left out. Residues count along the entry.
UniProt P07333, 20-972: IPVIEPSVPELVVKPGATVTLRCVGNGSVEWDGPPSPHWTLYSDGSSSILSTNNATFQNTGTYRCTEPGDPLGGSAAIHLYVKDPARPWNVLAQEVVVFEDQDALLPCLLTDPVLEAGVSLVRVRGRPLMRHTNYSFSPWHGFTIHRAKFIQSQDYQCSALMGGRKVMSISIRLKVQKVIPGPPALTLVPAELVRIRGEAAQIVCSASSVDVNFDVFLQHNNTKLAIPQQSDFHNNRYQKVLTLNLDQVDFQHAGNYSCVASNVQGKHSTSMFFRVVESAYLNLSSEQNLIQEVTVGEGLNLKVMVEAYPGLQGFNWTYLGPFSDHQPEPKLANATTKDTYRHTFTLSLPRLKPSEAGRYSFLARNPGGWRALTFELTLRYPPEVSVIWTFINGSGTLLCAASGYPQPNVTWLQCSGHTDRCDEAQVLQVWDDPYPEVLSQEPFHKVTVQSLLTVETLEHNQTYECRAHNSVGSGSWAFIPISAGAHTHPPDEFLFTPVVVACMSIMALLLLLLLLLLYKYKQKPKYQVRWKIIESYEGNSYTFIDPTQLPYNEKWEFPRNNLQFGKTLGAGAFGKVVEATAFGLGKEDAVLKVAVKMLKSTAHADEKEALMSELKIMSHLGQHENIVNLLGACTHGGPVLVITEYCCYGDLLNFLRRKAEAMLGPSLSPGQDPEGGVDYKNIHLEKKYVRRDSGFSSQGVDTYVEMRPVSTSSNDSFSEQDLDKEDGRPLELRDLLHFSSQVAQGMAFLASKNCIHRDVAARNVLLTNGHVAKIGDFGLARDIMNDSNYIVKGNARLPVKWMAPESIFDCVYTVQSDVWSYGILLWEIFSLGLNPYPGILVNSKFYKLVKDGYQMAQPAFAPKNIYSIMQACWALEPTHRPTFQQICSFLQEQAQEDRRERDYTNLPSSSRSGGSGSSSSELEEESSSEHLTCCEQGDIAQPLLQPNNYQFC

Target: CSF1R (Homo sapiens, UniProt P07333)
Assay: biochemical
Conditions: read-out: Percent control

Compound `C#Cc1cccc(Nc2ncnc3cc(OCCOC)c(OCCOC)cc23)c1` [Erlotinib] has a remaining activity at 10 µM of 100%.
